This is an account of results in patent US10322118B2, “Compounds and methods for inhibiting Cif virulence factor” (priority 2012, dated 2019).

Each structure is given as a SMILES string.

In this test the test system is thyroid hormone receptor. The experiment in a line: Thyroid hormone activity assay in GH3.TRE-Luc cells. It is filed as cell-based. The following applies: screen of compounds with different R5 groups.

Take `CCC(=O)Nc1cc(Br)c(Oc2ccc(O)c(C(C)C)c2)c(Br)c1`: the thyroid hormone activity entry was “lowest thyroid hormone activity”.
